Earlier results as cited in US6321750A, “Condom lubricants with zinc salts as anti-viral additives” (priority 1999, dated 2001).

Settings: water; cited from earlier work

**Q.** For Zinc gluconate, which Molar solubility is on record?
**A.** 280 mM

**Q.** What about the Solubility of the same substance?
**A.** 127 grams/liter
